Experimental data taken from patent US20040152735A1, “NO-synthase inhibitors comprising N,N'-bis(2-pyridyl)methyl-N,N'-bis(3,4,5-trimethoxybenzyl) ethylenediamine” (SOCIETE L'OREAL, S.A., priority 2001, published 2004).

Sequences of proteins named here, by UniProt entry; tags and fusion partners are left off.
UniProt P35228, whole entry, species assumed: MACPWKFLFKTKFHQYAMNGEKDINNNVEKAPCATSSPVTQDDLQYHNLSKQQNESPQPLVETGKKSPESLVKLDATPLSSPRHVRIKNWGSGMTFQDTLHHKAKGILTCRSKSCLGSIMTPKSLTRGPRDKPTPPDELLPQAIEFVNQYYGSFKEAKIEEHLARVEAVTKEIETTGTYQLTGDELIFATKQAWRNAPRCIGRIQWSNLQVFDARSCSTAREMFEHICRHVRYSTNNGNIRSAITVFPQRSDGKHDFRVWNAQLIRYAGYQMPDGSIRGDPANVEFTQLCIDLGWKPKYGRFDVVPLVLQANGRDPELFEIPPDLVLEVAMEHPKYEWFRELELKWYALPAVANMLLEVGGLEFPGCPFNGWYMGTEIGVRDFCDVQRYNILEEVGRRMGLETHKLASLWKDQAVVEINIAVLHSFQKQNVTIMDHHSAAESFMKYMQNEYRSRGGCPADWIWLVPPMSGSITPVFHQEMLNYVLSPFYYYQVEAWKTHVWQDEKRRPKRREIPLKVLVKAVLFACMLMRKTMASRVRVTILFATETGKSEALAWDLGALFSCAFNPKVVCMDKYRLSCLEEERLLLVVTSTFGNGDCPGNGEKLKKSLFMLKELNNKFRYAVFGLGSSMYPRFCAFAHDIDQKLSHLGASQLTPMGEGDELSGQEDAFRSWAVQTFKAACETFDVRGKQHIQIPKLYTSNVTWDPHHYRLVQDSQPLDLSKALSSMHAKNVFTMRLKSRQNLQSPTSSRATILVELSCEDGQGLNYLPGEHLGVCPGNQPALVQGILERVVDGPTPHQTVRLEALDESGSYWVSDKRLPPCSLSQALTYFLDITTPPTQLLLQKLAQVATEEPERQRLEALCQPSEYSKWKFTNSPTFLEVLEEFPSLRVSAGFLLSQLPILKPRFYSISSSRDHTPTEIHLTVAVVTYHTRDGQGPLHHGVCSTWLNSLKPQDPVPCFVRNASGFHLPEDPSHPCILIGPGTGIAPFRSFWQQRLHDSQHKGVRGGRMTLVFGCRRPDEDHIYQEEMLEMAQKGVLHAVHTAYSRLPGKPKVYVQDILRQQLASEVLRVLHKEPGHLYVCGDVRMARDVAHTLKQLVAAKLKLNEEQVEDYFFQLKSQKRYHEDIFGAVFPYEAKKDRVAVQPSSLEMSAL

Molecular target: T1, inducible NO-synthase (NO-synthase 2) (Homo sapiens, UniProt P35228)
T1 construct: positive control (induction of the enzyme): mixtures of interferon-(1000 U/ml) and of interleukin 1-(100 U/ml); endogenous in cells; 267(30), 21277-21280, 1992
Assay: Inhibition of inducible NO-synthase (test of Heck et al.): nitrite/nitrate measured after stimulating NO-synthase 2 with interferon and interleukin 1
Type: cell-based
Conditions: control compound at 200 μm; nitrites and nitrates after induction
Protocol: The activity of N,N′-bis(2-pyridyl)methyl-N,N′-bis(3,4,5-trimethoxybenzyl)ethylenediamine on inducible NO-synthase was evaluated in the test described by Heck et al., (J.B.C., Vol. 267, No. 30, 21277-21280, Oct. 25, 1992).
The object of this test is to show the reduction in the concentration of nitrate and nitrite, ultimately, after stimulating NO-synthase 2.
The following controls were introduced into the tests:
A: positive control (induction of the enzyme): mixtures of interferon-(1000 U/ml) and of interleukin 1-(100 U/ml);
To determine the activity of the test product, the amount of stable NO reaction products (nitrites and nitrates) is measured using the “nitric calorimetric assay” kit marketed by Boehringer under the reference 1756.28.
N,N′-bis(2-pyridyl)methyl-N,N′-bis(3,4,5-trimethoxybenzyl) ethylenediamine was tested at concentrations of 10 μM, 50 μM and 100 μM in ethanol.

Row | SMILES | % Inhibition [%]
1 | CNC(=N)NCCC[C@H](N)C(=O)O [B, N^G-monomethyl-L-arginine (L form), reference compound] | 100
2 | CNC(=N)NCCC[C@H](N)C(=O)O [C, N^G-monomethyl-L-arginine (D form), reference compound] | 0
